Compound activity (PubChem BioAssay)
PINK1 modulator = changes PINK1 expression | PINK1 immunofluorescence, high-content cytometry, 24 h | 410,000 compounds, 0.2% hits | AID 624263 | Potency, µM (series often up to 76.6 µM), for the others: at the top dose activation (PINK1 increase), hits mostly activators; active = well fitted activation curve with a large enough effect; inconclusive = small, poorly fitted or top-dose-only effect; cell line not stated here; note: potency is the fitted concentration of half-maximal effect; % of control where 0% means no effect; nearly all actives have a fitted effect of over 65% in size
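Measures PINK1 amount and localization on or inside mitochondria by immunofluorescence. Stable cells get compounds at 5 concentrations for 24 hours before fixation and staining; CCCP controls included.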
rTrxR1 inhibitor = rat TrxR1 inhibition; O89049; recombinant rTrxR1, NADPH fluorescence consumption, selenite substrate; Potency, µM (doses to about 114 µM), for the others: top-dose activity change, negative = inhibition, actives largely listed as inhibitors; 390,000 compounds, 1% hits; note: potency is the fitted concentration of half-maximal effect; % is set by controls: 0 for no effect and ±100 for the full control effect; nearly all actives have a fitted effect of over 65% in size
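Rat TrxR1 (90 nM in the dispensed reagent) was pre-reduced with 400 uM NADPH for 5 min at room temperature, then incubated with compound for 15 min. After 400 uM selenite was added, NADPH fluorescence (Ex 340/Em 450 nm) was followed for 8 min.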
TrxR1 substrate = substrates of rat thioredoxin reductase 1 | 390,000 compounds, 0.01% hits | AID 588456 | Potency, µM (titrated, usually from 114 µM), for inactives: at the highest dose activity change, negative = substrate turnover | purified TrxR1 substrate turnover, NADPH consumption readout | O89049; note: potency is the fitted concentration of half-maximal effect; % is set by controls: 0 for no effect and ±100 for the full control effect; nearly all actives have a fitted effect of over 50% in size
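Rat TrxR1, dispensed at 90 nM, was prereduced with 400 uM NADPH (final) for 5 min at ~22 deg C, then incubated with compound 15 min before 400 uM selenite. A first-read NADPH fluorescence drop versus no-compound background flagged substrates.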
miR-21 reporter = miR-21 reporter, rising signal. 340,000 tested, under 10 active. Potency, µM (highest dose often 38.3 µM), for the others: at the highest dose reporter change, positive = more light. HeLa miR-21 FLuc reporter, luciferase, 48 h. AID 2288; active = well fitted rising curve with a large enough effect; inconclusive = small, poorly fitted or top-dose-only effect; inactive = no such curve, though single readings can be large or run the other way;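 further: % of control where 0% means no effect; miR-21 action dims this reporter so a rising signal means less miR-21 action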
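Compounds were titrated across several concentrations (up to approximately 40 uM) and incubated 48 hours with HeLa miR-21-FLuc reporter cells (miR-21 target sequence downstream of FLuc, endogenous miR-21). Readout was firefly luciferase luminescence after lytic detection reagent.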
GALK inh = blocks human galactokinase activity; 270,000 compounds, 0.007% hits; Potency, µM (top dose mostly 57.5 µM), without a hit: at the top dose activity change, negative = inhibition, usual class: inhibitors; P51570; Purified GALK, Kinase-Glo residual ATP luminescence; note: potency is the fitted concentration of half-maximal effect; % is set by controls: 0 for no effect and ±100 for the full control effect
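5 nM enzyme, 35 uM ATP, 100 uM galactose, 20 mM HEPES pH8.0, 5 mM MgCl2; 1 h RT; residual ATP by Kinase-Glo Plus luminescence, qHTS format.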
* marks the source's active call; other numbers are inactive results; ! = not active in a repeat; [ ] = another dose, or the depositor's remark. Hits are enriched below; roughly 1.1% of the tested compounds scored in any of these assays. Unless noted, calls come from the whole dose curve; as a rule, active = well fitted curve in the direction sought with a large enough effect; inconclusive = small, poorly fitted or top-dose-only effect, or another doubt; inactive = no such curve, though single readings can be large; an effect the other way counts as inactive or inconclusive.

The opening two records, ahead of the listing:
Results for COc1ccc(OCC#CCN2CC(C)OC(C)C2)cc1 (stereo not drawn) ?
PINK1 modulator: -1%; rTrxR1 inhibitor: 16µM*; TrxR1 substrate: -2%; miR-21 reporter: -1%; GALK inh: 1%

How did Cc1c(C(=O)N2CC[C@@H]3CCCC[C@H]3C2)sc2ncnc(NCCc3ccccn3)c12 do in these assays?
PINK1 modulator: 2%

The whole of this part, from the start:
Results for COc1ccc(OCC#CCN2CC(C)OC(C)C2)cc1 (stereo not drawn) ?
PINK1 modulator: -1%; rTrxR1 inhibitor: 16µM*; TrxR1 substrate: -2%; miR-21 reporter: -1%; GALK inh: 1%

How did Cc1c(C(=O)N2CC[C@@H]3CCCC[C@H]3C2)sc2ncnc(NCCc3ccccn3)c12 do in these assays?
PINK1 modulator: 2%

How did CC1=C(C(=O)Nc2ccccc2)C(c2ccc[nH]2)n2ncnc2N1 (stereo not drawn) do in these assays?
PINK1 modulator: 0%; rTrxR1 inhibitor: 40µM*!; TrxR1 substrate: -3%[57.1 µM]; miR-21 reporter: -1%

What do the screens show for `CC(=O)c1ccc(F)c(-c2cc(C)cc3c2OC(CNC(=O)C2CCCCN2C)C3)c1` (stereo not drawn)?
PINK1 modulator: 1%

What do the screens show for `CSc1ccc(CCNC(=O)c2cc(C)nc3c2c(C)nn3-c2ccccc2)cc1`?
PINK1 modulator: 1%; rTrxR1 inhibitor: 1%; TrxR1 substrate: 26%; miR-21 reporter: 5%

How did CCOC(=O)c1c(-c2ccc(C)cc2)csc1NC(=O)c1nc(SC(C)C)ncc1Cl do in these assays?
PINK1 modulator: 0%; rTrxR1 inhibitor: 16%; TrxR1 substrate: 3%; miR-21 reporter: 1%

Results for CN(C)S(=O)(=O)c1cccc(NC(=S)Nc2cccc3cnccc23)c1 ?
PINK1 modulator: 2%; rTrxR1 inhibitor: 40µM*; TrxR1 substrate: -5%; miR-21 reporter: inconclusive; GALK inh: -26%

How did Oc1ccc(N=Cc2cc(Br)c(N3CCOCC3)o2)cc1 do in these assays?
PINK1 modulator: -1%; rTrxR1 inhibitor: 32µM*; TrxR1 substrate: -7%; miR-21 reporter: -2%; GALK inh: 0%

How did C/C(=N\NS(=O)(=O)c1ccc(Cl)c([N+](=O)[O-])c1)c1ccc(C)o1 do in these assays?
PINK1 modulator: -1%; rTrxR1 inhibitor: 40µM*; TrxR1 substrate: -8%; miR-21 reporter: 0%; GALK inh: 1%

What do the screens show for `C/C(=N\NS(=O)(=O)c1ccc(Cl)c([N+](=O)[O-])c1)c1cc2ccccc2o1`?
PINK1 modulator: 0%; rTrxR1 inhibitor: inconclusive; TrxR1 substrate: -1%; miR-21 reporter: -1%; GALK inh: -5%

How did CCOCCc1nn2c(=O)cc(COC(=O)COc3ccccc3Cl)nc2s1 do in these assays?
PINK1 modulator: 1%; rTrxR1 inhibitor: 13%[57.1 µM]; TrxR1 substrate: 6%[57.1 µM]; miR-21 reporter: 3%

Results for Cc1ccc(Nc2nc(CSc3nnc(-c4ccncc4)n3C)cs2)cc1 ?
PINK1 modulator: 1%; rTrxR1 inhibitor: -2%; TrxR1 substrate: 0%; miR-21 reporter: -3%; GALK inh: 1%

What do the screens show for `Cc1ccccc1Nc1nc(CSc2nnc(-c3ccoc3C)n2C)cs1`?
rTrxR1 inhibitor: 50µM*; TrxR1 substrate: -7%; miR-21 reporter: -16%; GALK inh: 3%

Results for CCOc1ccc(C(=O)c2cn(CC(=O)Nc3ccc4c(c3)OCCO4)c3ccc(F)cc3c2=O)cc1 ?
PINK1 modulator: 0%; rTrxR1 inhibitor: -5%; TrxR1 substrate: -8%; miR-21 reporter: 3%

Results for CC1(C)Cc2c(c(-c3ccco3)nc3sc4c(NCCCO)ncnc4c23)CO1 ?
PINK1 modulator: 1%; rTrxR1 inhibitor: 7.9µM*; TrxR1 substrate: 23%; miR-21 reporter: -21%

How did CC1(C)Cc2c(c(-c3ccco3)nc3sc4c(NCCN5CCOCC5)ncnc4c23)CO1 do in these assays?
PINK1 modulator: 3%; rTrxR1 inhibitor: -21%[57.1 µM]; TrxR1 substrate: 22%[57.1 µM]; miR-21 reporter: -21%; GALK inh: 0%

Results for Cc1cc(C)cc(NC(=O)CCN2C(=O)c3ccccc3Sc3ncccc32)c1 ?
PINK1 modulator: 0%; rTrxR1 inhibitor: 25µM*; TrxR1 substrate: -12%; miR-21 reporter: 4%

How did O=C(N[C@@H](Cc1ccccc1)C(=O)N[C@@H](Cc1ccccc1)C(=O)O)OCc1ccccc1 do in these assays?
PINK1 modulator: -1%; rTrxR1 inhibitor: 8%[57.1 µM]; TrxR1 substrate: 9%[57.1 µM]

What do the screens show for `O=C(N[C@@H](Cc1ccccc1)C(=O)CCl)OCc1ccccc1`?
PINK1 modulator: -1%; rTrxR1 inhibitor: 21µM*; TrxR1 substrate: 9%[57.1 µM]
